Results reported in patent publication US20230348453A1, “HALOGENATED-HETEROARYL AND OTHER HETEROCYCLIC KINASE INHIBITORS, AND USES THEREOF” (iOmx Therapeutics AG, priority 2020, published 2023).

The chains behind the UniProt entries cited, without tags or fusion partners. Where a name states a change or a piece, a line headed by the entry shows the natural chain unless it says otherwise.
UniProt Q9Y2K2: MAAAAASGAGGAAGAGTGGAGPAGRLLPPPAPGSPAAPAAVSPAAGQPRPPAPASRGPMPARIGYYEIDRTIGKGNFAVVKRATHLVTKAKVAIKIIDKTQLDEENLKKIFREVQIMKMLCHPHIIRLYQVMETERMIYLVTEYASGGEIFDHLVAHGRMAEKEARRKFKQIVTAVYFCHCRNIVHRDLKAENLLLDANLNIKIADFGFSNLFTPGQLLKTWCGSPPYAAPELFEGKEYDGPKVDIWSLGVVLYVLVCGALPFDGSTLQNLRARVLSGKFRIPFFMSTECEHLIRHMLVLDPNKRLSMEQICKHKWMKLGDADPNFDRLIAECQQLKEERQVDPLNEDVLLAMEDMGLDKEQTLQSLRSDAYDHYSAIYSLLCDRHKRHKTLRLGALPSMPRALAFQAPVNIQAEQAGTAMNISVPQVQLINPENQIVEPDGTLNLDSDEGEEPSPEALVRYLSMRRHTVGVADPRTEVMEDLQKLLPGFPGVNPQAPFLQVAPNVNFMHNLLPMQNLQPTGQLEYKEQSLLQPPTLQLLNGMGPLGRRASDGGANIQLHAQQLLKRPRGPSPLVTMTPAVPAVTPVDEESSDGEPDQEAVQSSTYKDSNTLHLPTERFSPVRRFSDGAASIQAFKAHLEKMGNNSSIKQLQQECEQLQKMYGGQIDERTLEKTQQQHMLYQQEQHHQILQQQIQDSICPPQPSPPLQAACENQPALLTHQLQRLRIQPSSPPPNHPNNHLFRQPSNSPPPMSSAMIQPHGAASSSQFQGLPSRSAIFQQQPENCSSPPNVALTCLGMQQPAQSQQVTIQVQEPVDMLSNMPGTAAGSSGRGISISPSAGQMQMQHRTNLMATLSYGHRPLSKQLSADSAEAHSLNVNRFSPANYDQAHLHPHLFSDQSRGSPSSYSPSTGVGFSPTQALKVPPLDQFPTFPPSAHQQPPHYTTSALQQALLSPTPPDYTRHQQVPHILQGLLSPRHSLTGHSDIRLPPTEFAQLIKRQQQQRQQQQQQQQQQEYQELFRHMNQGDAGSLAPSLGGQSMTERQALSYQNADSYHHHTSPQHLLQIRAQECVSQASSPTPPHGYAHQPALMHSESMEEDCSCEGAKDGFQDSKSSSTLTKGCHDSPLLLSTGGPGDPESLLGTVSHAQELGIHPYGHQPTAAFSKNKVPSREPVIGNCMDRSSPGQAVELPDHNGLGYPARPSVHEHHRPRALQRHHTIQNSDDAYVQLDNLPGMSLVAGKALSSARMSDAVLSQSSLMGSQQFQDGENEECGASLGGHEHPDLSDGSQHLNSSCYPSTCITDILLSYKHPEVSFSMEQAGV

What was measured:
[1] = target: SIK3 (Homo sapiens (Human), UniProt Q9Y2K2); details: read-out: SIK3 IC50
[2] = Full pharmacokinetic study in mice
[3] = Human liver microsomal stability; details: Table 5A
[4] = Mouse liver microsomal stability; details: Table 5A

Row | Compound | IC50 [1] | AUCinf ([2]; 1 mg/kg iv) | AUClast ([2]; 1 mg/kg iv) | CL ([2]; 1 mg/kg iv) | Tmax ([2]; 1 mg/kg iv) | Vss ([2]; 1 mg/kg iv) | t1/2 ([2]; 1 mg/kg iv) | AUCinf (nM*h) ([2]; 30 mg/kg po) | AUClast (nM*h) ([2]; 30 mg/kg po) | t1/2 ([2]; 30 mg/kg po) | Tmax (h), Total ([2]; mice, 30 mg/kg po, total) | Human liver microsomal stability, Half-life [3] | Mouse liver microsomal stability, Half-life [4]
1 | Cc1nc(Nc2ncc(C(=O)NC3CN4CCC3CC4)s2)cc(N2CCN(CCO)CC2)n1 (stereo not shown) | 8.85 µM |  |  |  |  |  |  |  |  |  |  |  | 
2 | Cc1nc(Nc2ncc(C(=O)Nc3c(C)csc3Cl)s2)cc(N2CCN(CCO)CC2)n1 [Compound C7, N-(2-chloro-4-methylthiophen-3-yl)-2-((6-(4-(2-hydroxyethyl)piperazin-1-yl)-2-methylpyrimidin-4-yl)amino)thiazole-5-carboxamide] |  | 0.36 µM·h | 0.34 µM·h | 94 mL/min/kg | 4.8 min | 5.4 L/kg | 72 min | 2,337 nM*h | 2,328 nM*h | 198 min | 2.00 h | 5 min | 12 min
